Results: patent USRE28744E, “Crystalline p-hydroxyampicillin and salts thereof” (priority 1968, dated 1976)

Columns and labels:
Format in all cases: cell-based
Paracolon 232 = test: serial dilution in nutrient agar, synergy M.I.C., Paracolon 232
Proteus morganii G = test: serial dilution in nutrient agar, synergy M.I.C., Proteus morganii G
E. coli 37 = test: serial dilution in nutrient agar, synergy M.I.C., E. coli 37
Proteus vulgaris K = test: serial dilution in nutrient agar, synergy M.I.C., Proteus vulgaris K
[1] = in the presence of 100 μg./ml. Cloxacillin
[2] = in the presence of 100 μg./ml. Dicloxacillin
[3] = in the presence of 100 μg./ml. Nafcillin
[4] = in the presence of 100 μg./ml. Methicillin

CC1(C)S[C@@H]2[C@H](NC(=O)[C@H](N)c3ccc(O)cc3)C(=O)N2[C@H]1C(=O)O [Example 3, 6-[(-)α-amino-p-hydroxyphenylacetamido]Penicillanic Acid]
Minimum inhibitory concentration, Paracolon 232 (Paracolon 232): 1.25 µg/mL | Minimum inhibitory concentration, Paracolon 232 (Paracolon 232; None (alone), 18 hours at 37°C): 125 µg/mL | Minimum inhibitory concentration, Paracolon 232 (Paracolon 232; [1]): 1.25 µg/mL | Minimum inhibitory concentration, Paracolon 232 (Paracolon 232; [2]): 1.25 µg/mL | Minimum inhibitory concentration, Paracolon 232 (Paracolon 232; [3]): 12.5 µg/mL | Minimum inhibitory concentration, Proteus morganii G (Proteus morganii G; [1]): 12.5 µg/mL | Minimum inhibitory concentration, Proteus morganii G (Proteus morganii G; [4]): 1.25 µg/mL | Minimum inhibitory concentration, Proteus morganii G (Proteus morganii G; [3]): 125 µg/mL | Minimum inhibitory concentration, E. coli 37 (E. coli 37): 1.25 µg/mL | Minimum inhibitory concentration, E. coli 37 (E. coli 37; None (alone), 18 hours at 37°C): 125 µg/mL | Minimum inhibitory concentration, E. coli 37 (E. coli 37; [1]): 1.25 µg/mL | Minimum inhibitory concentration, E. coli 37 (E. coli 37; [2]): 1.25 µg/mL | Minimum inhibitory concentration, E. coli 37 (E. coli 37; [4]): 1.25 µg/mL | Minimum inhibitory concentration, Proteus vulgaris K (Proteus vulgaris K; [1]): 12.5 µg/mL | Minimum inhibitory concentration, Proteus vulgaris K (Proteus vulgaris K; [3]): 125 µg/mL

Where two headings read alike, the source gives them in different places.
